Experimental data as given in US5317086A, “Cysteine proteinase inhibitors and inhibitor precursors” (The Regents of the University of California, priority 1992, dated 1994).

Sequences of proteins named here, by UniProt entry; tags and fusion partners are left off. Residues count along the entry.
UniProt P00784, 134-345 limits assumed: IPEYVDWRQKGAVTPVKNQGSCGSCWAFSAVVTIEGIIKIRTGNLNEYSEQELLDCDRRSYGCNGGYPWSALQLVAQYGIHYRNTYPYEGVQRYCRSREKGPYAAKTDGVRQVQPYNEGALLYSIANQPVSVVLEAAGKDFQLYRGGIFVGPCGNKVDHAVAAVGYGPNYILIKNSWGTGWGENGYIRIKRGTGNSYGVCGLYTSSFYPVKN

Columns and labels:
[1] = molecular target: T1, papain (Carica papaya, UniProt P00784); experiment: Competitive, reversible inhibition of papain (fluorescence, CbzPheArgMCA substrate)
Experimental: Fluorescence assays of papain were conducted on a Photon Technology International Alphascan fluorimeter. A Brinkmann RM20 Lauda water bath was used to maintain solutions and the cell compartment of the fluorimeter at constant temperature. All buffer solutions were prepared with doubly distilled H2 O and filtered through Millipore 0.45-mm filters.
Papain (Sigma, 2x recrystallized) (1 mg/mL) was activated at 25° C. for 30 min prior to use in a solution of 0.1mM EDTA, 0.5 mM L-cysteine hydrochloride, and 0.06 mM mercaptoethanol, and was then diluted (20 μL to 1.0 mL) and stored at 4° C. for use in the assays. The cysteine and mercaptoethanol buffers were prepared fresh daily. The standard assay conditions consisted of 50 mM phosphate, 0.2 M NaCl, 5 mM EDTA, 2 mM dithiothreitol (DTT), 0.2% bovine serum albumin (BSA) and 20% CH3 CN, pH 6.5. However, these concentrations were obtained by dilution of a buffer of 100 mM phosphate, 0.4 M NaCl, 10 mM EDTA, 4 mM DTT at pH 6.5 to a final volume of 1 mL with the necessary amounts of CH3 CN and H2 O. The DTT and BSA were added fresh daily to the phosphate buffer. Kinetic measurements were performed by monitoring the fluorescence of 7-amino-4-methylcoumarin (MCA) [1 (excitation) 350 nm, 1 (emission) 460 nm] released upon hydrolysis of the substrate, CbzPheArgMCA. Assays were conducted by charging a quartz cuvette with the appropriate amount of substrate solution, variable inhibitor in CH3 CN, and the reaction was initiated by addition of papain to the sample cuvette. […] The Km was determined in duplicate runs by fitting rate vs. [S] using the program ENZFITTER.
For the acetoxysulfide inhibitor, the concentration was varied from 50 μM to 0.10 μM at [S]=0.1 mM (1.3 Km). For the aldehyde, the parent dimethyl acetal was hydrolyzed in 0.3% HCl for 18 hr prior to assay, and concentration of aldehyde was varied from 262 nM to 0.262 nM. Fluorescence vs time data were collected for ≤15% of the reaction, and a straight line was fitted to the linear portion of the data. […]

[2] = Acetoxysulfide inhibitor hydrolysis to aldehyde in buffer
Experimental: The hydrolysis of the acetoxysulfide inhibitor to its aldehyde form was monitored by incubation of the inhibitor (2 μM) in the buffer/20% CH3 CN solution. Aliquots were removed and the extent of inhibition was determined by addition of substrate (100 μM) and followed by addition of enzyme. […] At micromolar concentrations of the aldehyde (Ki>3 nM), one would expect to observe this eventual complete inhibition of papain.
A mixture of the inhibitor (2.0 μM) in buffer with 20% CH3 CN was maintained in the 25° C. bath, and 970 μL aliquots were removed at periodic intervals. Substrate (100 μM) and enzyme (prepared as described above under Assays) were added, and substrate hydrolYsis was monitored. The remaining enzyme activity was determined by collecting fluorescence vs time data for ≤15% of the reaction, and a straight line was fitted to the linear portion of the data to give the rate of substrate hydrolysis. Rate vs. time data were plotted to determine the half life of the acetoxysulfide in solution.

[3] = Storage stability of solid; format: physicochemical; conditions: crystalline solids, freezer
[4] = molecular target: T1, papain; experiment: Irreversible inhibition of papain (preincubation and 3000-fold dilution assay)
Experimental: Papain (Sigma, 2x recrystallized) (1 mg/mL) was activated at 25° C. for 30 min prior to use in a solution of 0.1mM EDTA, 0.5 mM L-cysteine hydrochloride, and 0.06 mM mercaptoethanol, and was then diluted (20 μL to 1.0 mL) and stored at 4° C. for use in the assays. The cysteine and mercaptoethanol buffers were prepared fresh daily. The standard assay conditions consisted of 50 mM phosphate, 0.2 M NaCl, 5 mM EDTA, 2 mM dithiothreitol (DTT), 0.2% bovine serum albumin (BSA) and 20% CH3 CN, pH 6.5. […] Kinetic measurements were performed by monitoring the fluorescence of 7-amino-4-methylcoumarin (MCA) [1 (excitation) 350 nm, 1 (emission) 460 nm] released upon hydrolysis of the substrate, CbzPheArgMCA. […] The Km was determined in duplicate runs by fitting rate vs. [S] using the program ENZFITTER. […]
As illustrated by FIG. 1, evidence of irreversible inhibition was seen when the inhibitor was incubated with papain and diluted 3000-fold (to 7 nM) into a buffered solution of substrate, with slow but incomplete pseudo-first order deactivation of papain (25% loss of papain activity over 3.5 hr, diamond symbol in the graph). […] The dilution assay also provided evidence that the inhibition measured in the reversible assay was not due to trace amounts of aldehyde contamination. […]

SMILES	inhibition of the cysteine protease papain (in words) [1]	Ki ([1]; read-out: Ki of the aldehyde against papain, aldehyde form of the acetoxysulfide) [µM]	t1/2 for the conversion of acetoxysulfide to aldehyde ([2]; 2 μM in buffer/20% CH3CN, 25° C., average of duplicate runs)	hydrolysis half-life ([2]; pH 7, forms the aldehyde derivative)	storage stability (in words) [3]	irreversible inhibition of papain (in words) ([4]; incubated with papain, diluted 3000-fold (to 7 nM) into buffered substrate, FIG. 1)	loss of papain activity ([4]; inhibitor 0.020 μM (7Ki) incubated with papain, diluted 3000-fold (to), over 3.5 hr, 25° C.) [%]	Ki ([1]; read-out: Ki as competitive, reversible inhibitor of papain, mixture of diastereomers, [S]=0.1 mM (1.3 Km), pH 6.5, 20% CH3CN) [µM]
COC(=O)CCC(=O)N[C@@H](Cc1ccccc1)C(=O)N[C@@H](C)C=O	potent inhibitor	> 0.003	–	–	–	–	–	–
COC(=O)CCC(=O)N[C@@H](Cc1ccccc1)C(=O)N[C@@H](C)C(OC(C)=O)SCCC(C)C (some centres unmarked)	–	–	approx. 60 min	about one	stable during prolonged storage in a freezer	slow but incomplete pseudo-first order deactivation of papain	25	3

Where two headings read alike, the source gives them in different places.
